The target in the assay is 5-HT2A receptors (Rattus norvegicus, UniProt P14842). In words: in-vitro affinity to 5-HT2A receptors, displacement of [3H]ketanserine (Example A1). The following applies: target not given; description names affinity to 5-HT2A receptors. In kind it is binding. An excerpt: The 5-HT2A receptors are exposed both to [^3H]ketanserine (a substance which is known for its affinity to the receptor) and also to the test compound. The decrease in the affinity of [^3H]ketanserine to the receptor is an indication of the affinity of the test substance to the 5-HT2A receptor.
(In general: In a radioligand displacement assay an active substance lowers the binding of a labelled ligand.)

Protein sequences, listed by entry. Tags and fused reporters are not part of them.
UniProt P14842, whole entry: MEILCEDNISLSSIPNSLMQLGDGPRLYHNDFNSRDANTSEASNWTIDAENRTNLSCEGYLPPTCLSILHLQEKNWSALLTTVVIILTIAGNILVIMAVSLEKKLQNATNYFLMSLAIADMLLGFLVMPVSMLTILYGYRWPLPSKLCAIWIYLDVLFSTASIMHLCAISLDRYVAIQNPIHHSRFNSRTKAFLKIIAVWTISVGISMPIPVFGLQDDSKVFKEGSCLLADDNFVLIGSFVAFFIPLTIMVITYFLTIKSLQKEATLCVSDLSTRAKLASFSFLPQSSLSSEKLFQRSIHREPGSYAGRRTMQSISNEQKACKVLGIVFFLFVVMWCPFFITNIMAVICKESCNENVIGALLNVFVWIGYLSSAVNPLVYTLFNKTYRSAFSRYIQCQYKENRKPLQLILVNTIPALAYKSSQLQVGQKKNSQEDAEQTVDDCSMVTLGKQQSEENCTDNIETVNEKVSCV

Broadly, the IC50 is the midpoint of a concentration-inhibition curve.

As for `Fc1ccc(-c2ccc(-n3ncc(CNc4cccnc4)c3-c3ccccc3F)cn2)cc1` [(175), {5-(2-Fluorophenyl)-1-[6-(4-fluorophenyl)pyridin-3-yl]-1H-pyrazol-4-ylmethyl}pyridin-3-ylamine], the IC50 was 630 nM.

`NC(=O)c1[nH]cnc1NCc1cnn(-c2ccc(-c3ccccc3)cc2)c1-c1ccccc1F` [(186), 5-{[1-Biphenyl-4-yl-5-(2-fluorophenyl)-1H-pyrazol-4-ylmethyl]-amino}-3H-imidazole-4-carboxamide]: the IC50 stood at 630 nM.

“{4-[1-Biphenyl-4-yl-5-(2-fluorophenyl)-1H-pyrazol-4-ylmethyl]-piperazin-1-yl}- [(75)]” returned a half-maximal inhibitory concentration (IC50) of 630 nM.
